Reference: patent US20120277236A1

By UniProt entry, the sequences of proteins in these tests, tags left out. Residues count along the entry.
UniProt P14780, 20-707 limits assumed: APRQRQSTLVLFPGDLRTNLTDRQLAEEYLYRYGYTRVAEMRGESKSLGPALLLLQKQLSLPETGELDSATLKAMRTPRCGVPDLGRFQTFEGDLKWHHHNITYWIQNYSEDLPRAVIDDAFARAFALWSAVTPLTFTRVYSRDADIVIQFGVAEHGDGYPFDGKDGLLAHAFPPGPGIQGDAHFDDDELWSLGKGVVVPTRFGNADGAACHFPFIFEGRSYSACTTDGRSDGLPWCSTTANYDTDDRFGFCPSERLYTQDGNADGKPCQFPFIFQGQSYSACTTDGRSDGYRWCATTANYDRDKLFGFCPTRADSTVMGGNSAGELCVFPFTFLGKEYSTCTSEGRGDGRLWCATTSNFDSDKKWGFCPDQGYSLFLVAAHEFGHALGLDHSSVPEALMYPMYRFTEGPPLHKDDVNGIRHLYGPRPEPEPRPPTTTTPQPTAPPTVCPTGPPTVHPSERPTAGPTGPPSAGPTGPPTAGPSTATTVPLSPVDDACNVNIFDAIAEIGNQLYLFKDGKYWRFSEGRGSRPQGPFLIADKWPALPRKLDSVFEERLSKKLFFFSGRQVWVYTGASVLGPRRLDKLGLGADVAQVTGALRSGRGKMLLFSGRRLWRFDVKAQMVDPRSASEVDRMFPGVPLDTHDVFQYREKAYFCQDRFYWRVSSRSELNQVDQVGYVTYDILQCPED
UniProt P14780, 107-707 limits assumed: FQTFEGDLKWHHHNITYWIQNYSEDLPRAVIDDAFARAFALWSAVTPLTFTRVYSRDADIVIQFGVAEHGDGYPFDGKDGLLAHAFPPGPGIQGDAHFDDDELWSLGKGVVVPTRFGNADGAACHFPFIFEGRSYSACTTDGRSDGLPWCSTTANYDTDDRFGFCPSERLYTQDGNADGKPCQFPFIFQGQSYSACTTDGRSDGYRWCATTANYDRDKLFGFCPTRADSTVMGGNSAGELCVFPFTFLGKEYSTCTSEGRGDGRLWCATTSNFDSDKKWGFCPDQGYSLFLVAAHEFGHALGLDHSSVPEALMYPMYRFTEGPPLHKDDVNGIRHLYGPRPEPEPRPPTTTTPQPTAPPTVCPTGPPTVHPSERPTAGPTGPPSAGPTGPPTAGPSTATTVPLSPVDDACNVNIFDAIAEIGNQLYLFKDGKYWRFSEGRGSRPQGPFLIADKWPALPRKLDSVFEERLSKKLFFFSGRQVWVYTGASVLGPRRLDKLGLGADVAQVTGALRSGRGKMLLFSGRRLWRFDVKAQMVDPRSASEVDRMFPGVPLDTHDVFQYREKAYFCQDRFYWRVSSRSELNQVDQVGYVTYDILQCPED

What was measured:
[1] = system: HeLa cells stably expressing MT1-MMP-GFP; assay: 3D invasion assay, MT1-MMP-mediated cell invasion; settings: 18 hours at 37° C.
HT-1080 cells = assay: 3D type I collagen invasion assay, HT-1080; settings: 100 μM, 18-hour incubation
MDA-MB-435 cells = assay: Cell invasion assay, MDA-MB-435; settings: data not shown
[2] = system: MMP-9 expression in HT-1080 cells; assay: Western blot of MMP-9 expression; settings: 100 μM, 18 hours, Western blotting
APMA-activated MMP-9 = APMA-activated MMP-9 (Homo sapiens, UniProt P14780); assay: Fluorogenic peptide assay of MMP-9 catalytic activity; settings: 100 μM, APMA-activated MMP-9, fluorogenic MCA peptide
MMP-9 homodimer = MMP-9 homodimer (Homo sapiens, UniProt P14780); assay: Co-immunoprecipitation assay of MMP-9 homodimerization; settings: COS-1 cells with proMMP-9/Myc and proMMP-9/HA, 100 μM
[3] = system: ERK1/2 activation in COS-1 cells expressing MMP-9 cDNA; assay: Western blot of ERK1/2 activation; settings: COS-1 cells expressing MMP-9, serum starved 18 hours, 100 μM
[4] = system: MDA-MB-435/GFP tumor xenografts; assay: MDA-MB-435/GFP tumor xenograft in mice; settings: 20 mg/kg
COS-1 cells = assay: CellTiter-Glo cell viability / cytotoxicity assay; settings: 24 hours

CCCc1cc(=O)nc(SCC(=O)Nc2ccc(OC(F)F)cc2)[nH]1
effect on MT1-MMP-mediated cancer cell invasion [1]: did not interfere with MT1-MMP-mediated cancer cell invasion | cell invasive ability of HT-1080 cells (HT-1080 cells): significantly inhibited | MDA-MB-435 cell invasion (MDA-MB-435 cells): Inhibition of MDA-MB-435 cell invasion was also observed | effect on MMP-9 expression [2]: No effect on MMP-9 expression | inhibition of catalytic activity of MMP-9 (APMA-activated MMP-9): did not inhibit the catalytic activity of MMP-9 | MMP-9 homodimer formation (MMP-9 homodimer): blocked MMP-9 homodimer formation | activation of ERK1/2 [3]: decreased activation of ERK1/2 was observed | body weight and other signs of toxicity ([4]; 14-week period): No significant change in body weight nor other signs of toxicity | dimensions of tumor foci area in the lung ([4]; 6 days per week): significantly decreased | percent of mice displaying lung metastases ([4]; 6 days per week): significantly decreased | tumor incidence ([4]; 6 days per week): unaffected | extent of lung metastasis ([4]; 6 days per week, lung slices by fluorescent microscopy): dramatically reduced | tumor growth ([4]; intraperitoneal or intratumoral on alternating days, 6 days per week): profound delay in tumor growth | LD50 (COS-1 cells): 3.5 ± 0.3 mM
